Chains of the proteins cited; added tags and fusions are not shown.
UniProt P68400, whole entry: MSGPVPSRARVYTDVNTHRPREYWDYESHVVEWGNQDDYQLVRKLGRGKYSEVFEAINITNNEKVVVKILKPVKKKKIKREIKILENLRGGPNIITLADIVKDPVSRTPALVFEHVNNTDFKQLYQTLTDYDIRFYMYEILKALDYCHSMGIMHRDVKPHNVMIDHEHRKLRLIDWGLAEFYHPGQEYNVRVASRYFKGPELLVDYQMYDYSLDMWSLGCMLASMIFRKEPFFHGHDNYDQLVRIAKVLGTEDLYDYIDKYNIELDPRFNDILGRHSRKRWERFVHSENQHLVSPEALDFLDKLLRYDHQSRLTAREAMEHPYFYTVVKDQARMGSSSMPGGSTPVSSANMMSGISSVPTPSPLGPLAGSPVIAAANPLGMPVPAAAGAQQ

According to PMC6002439, “Inhibitory influence of natural flavonoids on human protein kinase CK2 isoforms: effect of the regulatory subunit” (Molecular and Cellular Biochemistry, 2017):

Molecular target: T1, CK2α2β2 (Homo sapiens, UniProt P68400)
T1 construct: GST (N); made in house; host or cells: E. coli BL21(DE3)trxB
Experiment: CK2 activity, phosphorylation of yeast P2B protein substrate, CK2α2β2 holoenzyme
Assay type: biochemical
Details: 10 μM yeast P2B as substrate, 20 µM ATP
Description: CK2α2β2 and CK2α′2β2 holoenzymes were purified as described elsewhere. Briefly, both catalytic subunits were overexpressed as GST fusion proteins, whereas the regulatory subunit was expressed as His-tagged protein. E. coli BL21(DE3)trxB cells (Novagen) harboring the plasmid pGEX-3X::CSNK2A1, pGEX-3X::CSNK2A2 or pET28a::CSNK2B were grown until OD600 = 0.6 at 37 °C. Next, IPTG was added to the final concentration of 0.2 mM; cultures were continued at room temperature for 4 h and then centrifuged at 5000×g for 10 min. Obtained bacterial pellets were mixed prior to lysis. Cells were disrupted by sonication and the supernatant was purified using glutathione-Sepharose (Pharmacia Biotech). Fractions containing the CK2 holoenzyme were pooled and dialysed against 50 mM Tris/HCl buffer pH 7.5 supplemented with 6 mM β-mercaptoethanol and 30% glycerol. The obtained protein preparations were used in enzymatic assays.
CK2 activity was determined in a standard reaction mixture (40 μL of final volume) containing 20 mM Tris–HCl buffer, pH 7.5, 15 mM MgCl2, 6 mM β-mercaptoethanol, and 20 μM [γ-^32P]ATP (specific radioactivity 500–1000 cpm/pmol) in the presence of 10 μM yeast P2B as substrate. […] The phosphate incorporation level in the P2B protein was estimated by cutting off the corresponding band and measuring the radioactivity in a scintillation counter (Perkin-Elmer).

O=c1cc(-c2ccc(O)cc2)oc2cc(O)cc(O)c12 [Compound 4, apigenin] showed an IC50 of 1500 ± 100 nM.
